Reference: patent US10047096B2, “Substituted pyridobenzodiazepinone-derivatives and use thereof” (Bayer Pharma Aktiengesellschaft, priority 2014, dated 2018)

Sequences of proteins named here, by UniProt entry; tags and fusion partners are left off. A change or cut given only in a name is not applied to a line headed by its entry.
UniProt P09619: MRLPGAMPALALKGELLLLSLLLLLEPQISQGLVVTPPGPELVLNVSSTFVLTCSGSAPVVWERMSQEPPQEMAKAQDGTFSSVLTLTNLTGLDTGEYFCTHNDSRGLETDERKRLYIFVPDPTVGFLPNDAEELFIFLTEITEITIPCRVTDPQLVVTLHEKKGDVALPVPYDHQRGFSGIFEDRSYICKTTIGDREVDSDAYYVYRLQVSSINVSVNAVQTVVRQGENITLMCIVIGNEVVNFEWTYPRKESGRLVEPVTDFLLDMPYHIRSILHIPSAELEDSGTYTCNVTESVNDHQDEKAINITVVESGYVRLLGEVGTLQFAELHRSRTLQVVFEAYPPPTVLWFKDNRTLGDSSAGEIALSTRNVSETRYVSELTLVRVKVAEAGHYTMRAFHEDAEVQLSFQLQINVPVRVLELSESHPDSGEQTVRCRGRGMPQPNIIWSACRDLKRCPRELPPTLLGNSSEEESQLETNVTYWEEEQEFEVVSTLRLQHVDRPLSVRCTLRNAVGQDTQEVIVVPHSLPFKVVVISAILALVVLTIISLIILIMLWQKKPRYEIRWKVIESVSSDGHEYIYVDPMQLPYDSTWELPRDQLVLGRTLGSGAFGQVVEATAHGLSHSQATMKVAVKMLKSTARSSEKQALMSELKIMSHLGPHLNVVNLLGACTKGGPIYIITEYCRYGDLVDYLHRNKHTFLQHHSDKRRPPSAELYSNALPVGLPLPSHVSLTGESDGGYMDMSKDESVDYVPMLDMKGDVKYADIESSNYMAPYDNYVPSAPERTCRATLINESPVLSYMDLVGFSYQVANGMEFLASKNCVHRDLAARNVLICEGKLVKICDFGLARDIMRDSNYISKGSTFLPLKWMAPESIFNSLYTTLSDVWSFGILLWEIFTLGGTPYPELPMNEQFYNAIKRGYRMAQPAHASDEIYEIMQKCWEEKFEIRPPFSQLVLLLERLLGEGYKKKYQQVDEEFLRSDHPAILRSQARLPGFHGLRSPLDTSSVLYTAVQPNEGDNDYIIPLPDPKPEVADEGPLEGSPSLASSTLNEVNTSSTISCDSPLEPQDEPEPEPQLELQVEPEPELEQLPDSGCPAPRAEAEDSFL

target: human PDGFRβ (Homo sapiens (Human), UniProt P09619); test: PDGFRβ kinase assay (PDGFRβ-HTRF); format: biochemical; conditions: 10 μM ATP; some mean values from multiple determinations
Method: The PDGFRβ-inhibitory activity of the inventive compounds was determined in the PDGFRβ-HTRF assay described hereinafter.
The IC50 values were calculated by a 4-parameter fit.

SMILES | IC50
Cc1cc(F)c(Nc2ccnc3c2C(=O)Nc2cc(CN4CCCC(OCC5CCC5)C4)ccc2N3)cc1O (racemic) [Example 60, rac-8-{[3-(Cyclobutylmethoxy)piperidin-1-yl]methyl}-4-[(2-fluoro-5-hydroxy-4-methylphenyl)amino]-6,11-dihydro-5H-pyrido[2,3-b][1,5]benzodiazepin-5-one] | 3.83 nM
CCN(CC)C(=O)COC1CCCN(Cc2ccc3c(c2)NC(=O)c2c(Nc4cc(O)c(C)cc4F)ccnc2N3)C1 (racemic) [Example 61, rac-N,N-Diethyl-2-{[1-({4-[(2-fluoro-5-hydroxy-4-methylphenyl)amino]-5-oxo-6,11-dihydro-5H-pyrido[2,3-b][1,5]benzodiazepin-8-yl}methyl)piperidin-3-yl]oxy}acetamide] | 4.55 nM
Cc1cc(F)c(Nc2ccnc3c2C(=O)Nc2cc(CN4CCC(O)C4)ccc2N3)cc1O (racemic) [Example 65, rac-4-[(2-Fluoro-5-hydroxy-4-methylphenyl)amino]-8-[(3-hydroxypyrrolidin-1-yl)methyl]-6,11-dihydro-5H-pyrido[2,3-b][1,5]benzodiazepin-5-one] | 1.05 nM
Cc1cc(F)c(Nc2ccnc3c2C(=O)Nc2cc(CN4CCCC(O)C4)ccc2N3)cc1O (racemic) [Example 69, rac-4-[(2-Fluoro-5-hydroxy-4-methylphenyl)amino]-8-[(3-hydroxypiperidin-1-yl)methyl]-6,11-dihydro-5H-pyrido[2,3-b][1,5]benzodiazepin-5-one] | 0.985 nM
Cc1cc(F)c(Nc2ccnc3c2C(=O)Nc2cc(CN4CCCC(Oc5ccccc5)C4)ccc2N3)cc1O (racemic) [Example 72, rac-4-[(2-Fluoro-5-hydroxy-4-methylphenyl)amino]-8-[(3-phenoxypiperidin-1-yl)methyl]-6,11-dihydro-5H-pyrido[2,3-b][1,5]benzodiazepin-5-one] | 9.59 nM
Cc1cc(F)c(Nc2ccnc3c2C(=O)Nc2cc(C(=O)N4CCC(O)C4)ccc2N3)cc1O (racemic) [Example 86, rac-4-[(2-Fluoro-5-hydroxy-4-methylphenyl)amino]-8-[(3-hydroxypyrrolidin-1-yl)carbonyl]-6,11-dihydro-5H-pyrido[2,3-b][1,5]benzodiazepin-5-one] | 8.61 nM
Cc1cc(F)c(Nc2ccnc3c2C(=O)Nc2cc(CN4CCCC(C)(O)C4)ccc2N3)cc1O (racemic) [Example 88, rac-4-[(2-Fluoro-5-hydroxy-4-methylphenyl)amino]-8-[(3-hydroxy-3-methylpiperidin-1-yl)methyl]-6,11-dihydro-5H-pyrido[2,3-b][1,5]benzodiazepin-5-one] | 1.7 nM
Cc1cc(F)c(Nc2ccnc3c2C(=O)Nc2cc(CNC(C)CO)ccc2N3)cc1O (racemic) [Example 168, rac-4-[(2-Fluoro-5-hydroxy-4-methylphenyl)amino]-8-{[(1-hydroxypropan-2-yl)amino]methyl}-6,11-dihydro-5H-pyrido[2,3-b][1,5]benzodiazepin-5-one] | 1.9 nM
Cc1cc(F)c(Nc2ccnc3c2C(=O)Nc2cc(CN4CCC(CCO)C4)ccc2N3)cc1O (racemic) [Example 182, rac-4-[(2-Fluoro-5-hydroxy-4-methylphenyl)amino]-8-{[3-(2-hydroxyethyl)pyrrolidin-1-yl]methyl}-6,11-dihydro-5H-pyrido[2,3-b][1,5]benzodiazepin-5-one] | 1.62 nM
Cc1cc(F)c(Nc2ccnc3c2C(=O)Nc2cc(CN4CCCC(O)C4)ccc2N3)cc1O (single isomer, unassigned; ent-4) [Example 70, ent-4-[(2-Fluoro-5-hydroxy-4-methylphenyl)amino]-8-[(3-hydroxypiperidin-1-yl)methyl]-6,11-dihydro-5H-pyrido[2,3-b][1,5]benzodiazepin-5-one (Enantiomer 1)] | 1.38 nM
Cc1cc(F)c(Nc2ccnc3c2C(=O)Nc2cc(CN4CCCC(O)C4)ccc2N3)cc1O (single isomer, unassigned; ent-4) [Example 71, ent-4-[(2-Fluoro-5-hydroxy-4-methylphenyl)amino]-8-[(3-hydroxypiperidin-1-yl)methyl]-6,11-dihydro-5H-pyrido[2,3-b][1,5]benzodiazepin-5-one (Enantiomer 2)] | 1.16 nM
Cc1cc(F)c(Nc2ccnc3c2C(=O)Nc2cc(CN4CCCC(CCO)C4)ccc2N3)cc1O (single isomer, unassigned; ent-4) [Example 158, ent-4-[(2-Fluoro-5-hydroxy-4-methylphenyl)amino]-8-{[3-(2-hydroxyethyl)piperidin-1-yl]methyl}-6,11-dihydro-5H-pyrido[2,3-b][1,5]benzodiazepin-5-one (Enantiomer 1)] | 1.16 nM
Cc1cc(F)c(Nc2ccnc3c2C(=O)Nc2cc(CN4CCCC(CCO)C4)ccc2N3)cc1O (single isomer, unassigned; ent-4) [Example 159, ent-4-[(2-Fluoro-5-hydroxy-4-methylphenyl)amino]-8-{[3-(2-hydroxyethyl)piperidin-1-yl]methyl}-6,11-dihydro-5H-pyrido[2,3-b][1,5]benzodiazepin-5-one (Enantiomer 2)] | 1.28 nM
CCN(CCO)Cc1ccc2c(c1)NC(=O)c1c(Nc3cc(O)c(Cl)cc3F)ccnc1N2 [Example 90, 4-[(4-Chloro-2-fluoro-5-hydroxyphenyl)amino]-8-{[ethyl(2-hydroxyethyl)amino]methyl}-6,11-dihydro-5H-pyrido[2,3-b][1,5]benzodiazepin-5-one] | 0.793 nM
Cc1cc(F)c(Nc2ccnc3c2C(=O)Nc2cc(CN4CC(O)C(NCCO)C4)ccc2N3)cc1O (stereo not drawn) [Example 91, 4-[(2-Fluoro-5-hydroxy-4-methylphenyl)amino]-8-({3-hydroxy-4-[(2-hydroxyethyl)amino]pyrrolidin-1-yl}methyl)-6,11-dihydro-5H-pyrido[2,3-b][1,5]benzodiazepin-5-one] | 1.66 nM
Cc1ccc(O)cc1Nc1ccnc2c1C(=O)Nc1cc(CNC(CO)c3ccccc3)ccc1N2 (stereo not drawn) [Example 106] | 3.86 nM
COc1ccccc1CNCc1ccc2c(c1)NC(=O)c1c(Nc3cc(O)ccc3C)ccnc1N2 [Example 108] | 2.87 nM
Cc1ccc(O)cc1Nc1ccnc2c1C(=O)Nc1cc(CNCc3ccccc3F)ccc1N2 [Example 121] | 5.74 nM
Cc1ccc(O)cc1Nc1ccnc2c1C(=O)Nc1cc(CN[C@H](CO)c3ccccc3)ccc1N2 [Example 128] | 3.6 nM
Cc1ccc(O)cc1Nc1ccnc2c1C(=O)Nc1cc(CNC3(C)CCC3)ccc1N2 [Example 134] | 2.82 nM
Cc1ccc(O)cc1Nc1ccnc2c1C(=O)Nc1cc(CN[C@@H](CO)C(C)C)ccc1N2 [Example 150] | 1.18 nM
Cc1cc(F)c(Nc2ccnc3c2C(=O)Nc2cc(CN4CCC(CCO)CC4)ccc2N3)cc1O [Example 163, 4-[(2-Fluoro-5-hydroxy-4-methylphenyl)amino]-8-{[4-(2-hydroxyethyl)piperidin-1-yl]methyl}-6,11-dihydro-5H-pyrido[2,3-b][1,5]benzodiazepin-5-one] | 3.03 nM
Cc1cc(F)c(Nc2ccnc3c2C(=O)Nc2cc(CN4CCC(C)(O)C(C)C4)ccc2N3)cc1O (stereo not drawn) [Example 165, 4-[(2-Fluoro-5-hydroxy-4-methylphenyl)amino]-8-[(4-hydroxy-3,4-dimethylpiperidin-1-yl)methyl]-6,11-dihydro-5H-pyrido[2,3-b][1,5]benzodiazepin-5-one] | 4.61 nM
Cc1cc(F)c(Nc2ccnc3c2C(=O)Nc2cc(CN4CC[C@H](O)C4)ccc2N3)cc1O [Example 207, 4-[(2-Fluoro-5-hydroxy-4-methylphenyl)amino]-8-{[(3S)-3-hydroxypyrrolidin-1-yl]methyl}-6,11-dihydro-5H-pyrido[2,3-b][1,5]benzodiazepin-5-one] | 0.995 nM
Cc1cc(F)c(Nc2ccnc3c2C(=O)Nc2cc(CN4CC[C@@H](O)C4)ccc2N3)cc1O [Example 208, 4-[(2-Fluoro-5-hydroxy-4-methylphenyl)amino]-8-{[(3R)-3-hydroxypyrrolidin-1-yl]methyl}-6,11-dihydro-5H-pyrido[2,3-b][1,5]benzodiazepin-5-one] | 1.03 nM
Cc1cc(F)c(Nc2ccnc3c2C(=O)Nc2cc(CN4CCC[C@H](O)C4)ccc2N3)cc1O [Example 223, 4-[(2-Fluoro-5-hydroxy-4-methylphenyl)amino]-8-{[(3S)-3-hydroxypiperidin-1-yl]methyl}-6,11-dihydro-5H-pyrido[2,3-b][1,5]benzodiazepin-5-one] | 1.01 nM
Cc1cc(F)c(Nc2ccnc3c2C(=O)Nc2cc(CN4CCC[C@@H](O)C4)ccc2N3)cc1O [Example 224, 4-[(2-Fluoro-5-hydroxy-4-methylphenyl)amino]-8-{[(3R)-3-hydroxypiperidin-1-yl]methyl}-6,11-dihydro-5H-pyrido[2,3-b][1,5]benzodiazepin-5-one] | 1.63 nM
